Measurements taken from patent US9956304 (GEORGIA STATE UNIVERSITY RESEARCH FOUNDATION, dated 2018).

Protein sequences, listed by entry. Tags and fused reporters are not part of them. Lines headed by an entry give the natural chain unless they say otherwise; changes in a name come on top.
UniProt P30550: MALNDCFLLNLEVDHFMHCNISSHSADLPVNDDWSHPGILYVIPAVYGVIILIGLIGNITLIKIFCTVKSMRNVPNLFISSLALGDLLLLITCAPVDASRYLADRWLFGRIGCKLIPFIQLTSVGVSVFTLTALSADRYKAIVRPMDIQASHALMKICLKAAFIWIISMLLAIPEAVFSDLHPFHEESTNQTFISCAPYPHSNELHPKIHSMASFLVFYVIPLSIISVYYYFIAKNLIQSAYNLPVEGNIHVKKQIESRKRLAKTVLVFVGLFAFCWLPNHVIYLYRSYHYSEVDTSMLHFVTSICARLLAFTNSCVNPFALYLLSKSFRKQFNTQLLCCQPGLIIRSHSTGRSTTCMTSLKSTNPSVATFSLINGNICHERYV

Biological target: T1, gastrin-releasing peptide receptor (GRPR) (UniProt P30550 1-384, limits assumed)
T1 construct: whole, on cells; Endogenous receptor on PC3 and H441 cells, xenograft tumors or PC3 cell lysate; the cell lines are human; also called GRP receptor
Assay: Scatchard plot from absorbance-based (ELISA type) assay on wells of PC3 cell lysate

B1: ProCA1B14 (designed binder)
chain: RDSGTVWGALGHGIELNIPNFQMTDDIDEVRWERGSTLVAEFKRKMKPFLKSGGSGGEQRLGNQWAVGHLMGGSGGAFEIDANGDLDIKNLTRDDSGTYNVTVYSTNGTRILNKALDLRILE
modifications: Gd3+ binding site; PEGylated and conjugated with NIR dye Cy5.5 for the in vivo experiments
notes: Bombesin variant B14 grafted into ProCA1 with GGSGG linkers; also called ProCAB14
  Kd: 2.8 nM
